Assay results: patent US9198918B2, “Benzoxazepin PI3K inhibitor compounds and methods of use” (Genentech, Inc., priority 2009, dated 2015)

Chains of the proteins cited; added tags and fusions are not shown.
UniProt P42336, whole entry: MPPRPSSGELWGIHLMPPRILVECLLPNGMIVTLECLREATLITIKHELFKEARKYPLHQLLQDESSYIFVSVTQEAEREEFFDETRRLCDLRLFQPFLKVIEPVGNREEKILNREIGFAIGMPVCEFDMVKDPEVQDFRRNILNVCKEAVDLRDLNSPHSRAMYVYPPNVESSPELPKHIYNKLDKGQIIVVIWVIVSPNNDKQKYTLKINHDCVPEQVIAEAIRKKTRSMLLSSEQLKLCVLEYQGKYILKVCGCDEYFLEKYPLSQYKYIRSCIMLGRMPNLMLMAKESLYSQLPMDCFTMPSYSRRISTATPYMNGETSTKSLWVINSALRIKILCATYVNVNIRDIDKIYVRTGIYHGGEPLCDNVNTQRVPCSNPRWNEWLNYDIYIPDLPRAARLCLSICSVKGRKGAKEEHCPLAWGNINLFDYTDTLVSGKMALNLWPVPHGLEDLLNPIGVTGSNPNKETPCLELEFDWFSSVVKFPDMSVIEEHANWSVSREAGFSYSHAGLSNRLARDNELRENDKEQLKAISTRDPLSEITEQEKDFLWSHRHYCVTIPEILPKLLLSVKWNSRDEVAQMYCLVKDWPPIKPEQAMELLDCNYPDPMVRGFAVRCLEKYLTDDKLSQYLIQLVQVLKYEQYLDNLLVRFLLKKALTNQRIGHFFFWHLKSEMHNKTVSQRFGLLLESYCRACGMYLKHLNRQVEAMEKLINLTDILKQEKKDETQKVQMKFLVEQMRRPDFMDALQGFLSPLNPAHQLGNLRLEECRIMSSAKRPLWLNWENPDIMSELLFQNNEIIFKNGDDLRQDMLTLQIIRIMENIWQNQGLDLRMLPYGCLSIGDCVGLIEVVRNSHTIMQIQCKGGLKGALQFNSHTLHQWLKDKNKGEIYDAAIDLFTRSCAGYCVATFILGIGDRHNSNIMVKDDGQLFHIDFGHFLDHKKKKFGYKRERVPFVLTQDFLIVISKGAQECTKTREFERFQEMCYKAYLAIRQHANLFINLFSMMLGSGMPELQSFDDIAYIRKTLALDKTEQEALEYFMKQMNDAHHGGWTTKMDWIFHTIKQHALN

Biological target: T1, PI3K alpha (p110 alpha) (Homo sapiens, UniProt P42336)
T1 construct: purchased Upstate Cell Signaling Solutions, Charlottesville, Va
Experiment: PI3K p110α (alpha) binding assay (Example 901)
Conditions: read-out: IC50, inhibition of PI3K alpha (binding to p110 alpha)

IC50: 0.5 nM
SMILES: Cc1nc(-c2cn3c(n2)-c2ccc(-c4cnn(C(C)(C)C(N)=O)c4)cc2OCC3)n(C(C)C)n1 [compound 196, 2-(4-(2-(1-isopropyl-3-methyl-1H-1,2,4-triazol-5-yl)-5,6-dihydrobenzo[f]imidazo[1,2-d][1,4]oxazepin-9-yl)-1H-pyrazol-1-yl)-2-methylpropanamide]
